AlphaSeq binding of Ab-14 heavy chain variants to a spike HR2 peptide

The measurements come from Li et al. 2023 (doi:10.1038/s41467-023-39022-2) through the FLAb antibody collection.

The target is the same throughout: PDVDLGDISGINAS, from the HR2 region of SARS-CoV-2 spike.

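The starting antibody came from a phage panning campaign against this peptide. These sequences belong to a second round, designed from the earlier measurements on random variants of the parent. Their group label is 14H_En_Gibbs (En: ensemble of fine-tuned language models; Gibbs: Gibbs sampling). In AlphaSeq, yeast of one mating type display the scFv and yeast of the other type display the target. Binding brings cells together so that they mate, and sequencing counts the barcode pairs among the diploids. Read counts were normalised to the haploid input and turned into Kd by a linear fit to BCL2-family pairs of known affinity, for each replicate. There are six technical replicates.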

Ab-14 is the parent antibody, in scFv form: VH, then a (GGGGS)3 linker, then VL. The light chain is unchanged in all variants.
VH: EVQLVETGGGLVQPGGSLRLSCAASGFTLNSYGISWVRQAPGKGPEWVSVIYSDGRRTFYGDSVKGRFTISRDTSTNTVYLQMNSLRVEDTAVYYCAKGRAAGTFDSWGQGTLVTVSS
VL: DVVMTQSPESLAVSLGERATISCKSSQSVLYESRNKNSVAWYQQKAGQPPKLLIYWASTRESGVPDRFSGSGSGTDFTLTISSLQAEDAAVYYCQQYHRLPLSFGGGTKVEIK

Variants are written as CDR1, CDR2 and CDR3 of the heavy chain (limits as in the source). Parent: GFTLNSYGIS, VIYSDGRRTFYGDSVK, GRAAGTFDS.
Values are log10 of the apparent Kd in nM; lower means stronger binding.
The mean shown is taken over the replicates in which the pair was detected.
An entry "nd" has no value in the source: the pair was not observed among the diploids in that replicate. This suggests poor binding but is not conclusive.

CDR-H1 | CDR-H2 | CDR-H3 | replicates, log10 nM | mean log10 Kd (nM) | control signals
GIDMQEYGIS | VIYADGLRTAYSDNFK | GVLGGTFDM | 0.34 / 0.01 / 0.70 / 0.46 / 0.45 / 0.75 | 0.45 | 0/18
GFDLQEYGIS | VIYADGARKSYTNSVK | GVVGGGMDV | nd / nd / nd / nd / nd / nd | nd | 0/18
GFLLNEYGIS | VIYADGLRTQYAESFK | GDLAGYLDS | nd / nd / nd / nd / nd / 2.29 | 2.29 | 1/18 (2.25)
GYSLQDYGIS | VIYADGKRKSYAEDVK | GNSGGSFMD | nd / nd / nd / nd / nd / nd | nd | 0/18
GFWLDEYGIS | VIYADGKRVAYINSVK | GQFTYFTDV | nd / nd / nd / nd / nd / nd | nd | 0/18
GFDINEYGIS | VMYADGSRSVYQDKVK | GFQGGTLDM | nd / nd / 3.95 / 2.22 / nd / 2.57 | 2.91 | 0/18
GFHLDEYGIS | VIYADGKRVVYTNDVK | GELEFGFVI | nd / nd / nd / nd / nd / nd | nd | 0/18
GFDIEEYGIS | VIYADGERTAYSNAVK | GNMAGTFLF | 0.35 / -0.04 / -0.27 / -0.16 / 0.12 / -0.33 | -0.05 | 0/18
GFEIEEYGIS | VIYADGQRTSYADNVK | GKVDTVVMY | nd / nd / nd / nd / nd / nd | nd | 0/18
GFQLEEYGIS | VIYADGRRAAYADDVK | GQGNVIAGG | 0.59 / 0.24 / 0.73 / -0.17 / -0.02 / 0.29 | 0.27 | 1/18 (2.94)
GFELDEYGIS | VIYADGKRVSYASSVK | GKFRVDIAA | nd / nd / nd / nd / nd / nd | nd | 0/18
GFKLDEYGIS | VIYADGQRKHYADSVK | GQINVYYTA | nd / nd / nd / nd / nd / nd | nd | 0/18
GFNLLEYGIS | VIYADGKRTMYTNTVK | GMINDGVMA | nd / nd / nd / nd / nd / nd | nd | 1/18 (1.41)
GFDLNEYGIS | VIYADGARSFYTNKVK | GVTVGDNGT | nd / nd / nd / nd / nd / nd | nd | 0/18
GALIEEYGIS | VIYADGVRKAYVNSFK | GEVGGTFTN | nd / nd / nd / nd / 2.78 / nd | 2.78 | 1/18 (2.86)
GFEIDEYGIS | VIYADGIRESYNDNVK | GQTGGAFDL | nd / nd / nd / nd / nd / nd | nd | 0/18
GFDIEEYGIS | VIYADGRRKAYADSVK | GIDVYGKDV | nd / nd / nd / nd / nd / nd | nd | 0/18
GDDIDEYGIS | VIYADGHRKQYSENVK | GYNAGTLDE | nd / nd / 1.96 / nd / nd / nd | 1.96 | 1/18 (1.02)
GFDVDEQGIS | VIYADGLRSQYANSVK | GAIGGMFFQ | nd / nd / nd / nd / nd / nd | nd | 0/18
GFDINEYGIS | VIYADGMRQAYAQNVK | GVHVCWVVI | -0.28 / 0.41 / -0.61 / -0.56 / -0.45 / -0.38 | -0.31 | 0/18
GFDLDEYGIS | VIYADGKRSAYHDSFK | GQLNKVSIV | nd / nd / nd / nd / nd / nd | nd | 0/18
GMNLEEYGIS | VIYADGLRSAYVDAVK | GGVGDVDFV | nd / nd / nd / 2.15 / nd / nd | 2.15 | 1/18 (0.84)
GFDLEDYGIS | VIYADGKRSFVSNSVK | GQLGNAFSM | nd / nd / nd / nd / nd / nd | nd | 0/18
GRDIEEYGIS | VIYADGVRTVYHDSVK | GQNAGFFIT | nd / nd / nd / nd / nd / nd | nd | 0/18
GFNINEYGIS | VIYADGLRVQYIDSVK | GNASIFGVD | nd / nd / nd / nd / nd / nd | nd | 0/18
GYDIDEYGIS | VIYADGQRTSYVQSVK | GAGDITGLV | nd / nd / nd / nd / nd / nd | nd | 0/18
GFDVEEYGIS | VIYADGRRVAYAKDVK | GMNFDFIVV | nd / nd / nd / nd / nd / nd | nd | 1/18 (0.14)
GFDLREYGIS | VIYADGRRVVYQDKVK | GELTGTFDQ | 0.51 / 0.99 / 0.83 / 1.16 / 1.90 / 2.12 | 1.25 | 1/18 (2.17)
GFDLNEYGIS | VIYADGLRTAYIDEVK | GKGDVIVGH | nd / nd / nd / nd / nd / nd | nd | 2/18 (2.02)
GKSLDEYGIS | VIYADGLRSVYANSVK | GQFDDTMDL | 1.37 / -0.46 / 0.43 / 0.71 / 0.01 / 0.12 | 0.36 | 0/18
GNDINEYGIS | VIFADGMRTAYLNDVK | GQMAGLFIM | nd / nd / nd / nd / nd / nd | nd | 0/18
GFDLDSYGIS | VIYADGRRKAYHDSVK | GTNGSVSFV | nd / nd / nd / nd / nd / nd | nd | 0/18
GFQIEEYGIS | VIYADGMRSFYVDNVK | NGMNVSGIV | nd / nd / nd / nd / nd / nd | nd | 0/18
GFDLNEYGIS | VIYADGMRQAVVQNVK | GKINVTDSV | nd / nd / nd / 1.92 / nd / nd | 1.92 | 0/18
GFDIEEYGIS | VIYADGIRTSYQNKVK | GRSGGIFNV | nd / nd / 0.28 / nd / nd / nd | 0.28 | 0/18
GDGLLEMGIS | VIYADGMREAYVEDVK | GQTGGTFVL | nd / nd / 0.45 / nd / nd / nd | 0.45 | 0/18
GFDVDEYGIS | VIYADGKRSMYTDKVK | GVIADGMMV | nd / nd / nd / 2.32 / nd / nd | 2.32 | 0/18
GKSLNEFGIS | VIYADGVRRAYADDVK | GNLAGHFIS | nd / nd / nd / nd / nd / nd | nd | 2/18 (3.14)
GFKLDEYGIS | VIYADGCRKAYADSFK | GKTTFSKFV | nd / nd / nd / nd / nd / nd | nd | 0/18
GFQLEDYGIS | VIYADGRRTAYAADVK | GQNNVVAGG | nd / nd / nd / nd / nd / nd | nd | 0/18
GFTLSEYGIS | VIYADGVRVEYTDSVK | GSLGGSFLV | nd / nd / nd / nd / nd / nd | nd | 0/18
GFDLDEYGIS | VIYADGTRRSYADNVK | GDYHYVVST | nd / nd / nd / nd / nd / nd | nd | 0/18
GADLNEYGIS | VIYADGRRVEYENSFK | GWVAGTFDS | nd / nd / nd / nd / 1.23 / nd | 1.23 | 0/18
GTDLEEYGIS | VIYADGMRAAYANNVK | GVKGINVTY | nd / nd / nd / nd / nd / nd | nd | 0/18
GFDLEKYGIS | VIYADGMRSEYDQSVK | GENAGYNMI | nd / nd / nd / nd / nd / nd | nd | 1/18 (1.35)
GFTINEYGIS | VIYADGNRVEYNDKVK | GMLAGTFDQ | nd / -1.02 / nd / -0.52 / -0.26 / nd | -0.60 | 0/18

For reference, 6 entries of the list once more:

| CDR-H1 | CDR-H2 | CDR-H3 | replicates, log10 nM | mean log10 Kd (nM) | control signals |
|---|---|---|---|---|---|
| GDGLLEMGIS | VIYADGMREAYVEDVK | GQTGGTFVL | nd / nd / 0.45 / nd / nd / nd | 0.45 | 0/18 |
| GFDLDEYGIS | VIYADGTRRSYADNVK | GDYHYVVST | nd / nd / nd / nd / nd / nd | nd | 0/18 |
| GFQIEEYGIS | VIYADGMRSFYVDNVK | NGMNVSGIV | nd / nd / nd / nd / nd / nd | nd | 0/18 |
| GFDLQEYGIS | VIYADGARKSYTNSVK | GVVGGGMDV | nd / nd / nd / nd / nd / nd | nd | 0/18 |
| GFLLNEYGIS | VIYADGLRTQYAESFK | GDLAGYLDS | nd / nd / nd / nd / nd / 2.29 | 2.29 | 1/18 (2.25) |
| GFDIEEYGIS | VIYADGRRKAYADSVK | GIDVYGKDV | nd / nd / nd / nd / nd / nd | nd | 0/18 |

The range of this assay differs from that of the first round, and the authors advise against merging the two.
The parent sequence was in this pool as ten entries: three were never detected, three once, and four in most replicates, with averages from 0.34 to 2.37.
The authors' rule: three or more of the six replicates give a measured affinity, fewer mean a poor binder.
Background: pairings of all heavy chain designs with three empty control strains gave a value in 1% of cases (median 2.08, 5th percentile 0.84). Values in that range, when seen in few replicates, are hard to tell from nonspecific mating. For each scFv, signals with the empty controls are counted beside the result, with their mean in brackets.